Results taken from US12036197B2, “Composition for improving bioavailability of drugs” (priority 2019, dated 2024).

Assay: PK test for small-intestinal administration of Pramlintide (ELISA)
Settings: male, SD, rat, plasma, 200 μg/kg

**Q.** With `CC[C@H](C)[C@H](NC(=O)[C@@H]1CCCN1C(=O)CNC(=O)[C@H](Cc1ccccc1)NC(=O)[C@H](CC(N)=O)NC(=O)[C@H](CC(N)=O)NC(=O)[C@H](CO)NC(=O)[C@H](CO)NC(=O)[C@H](Cc1c[nH]cn1)NC(=O)[C@@H](NC(=O)[C@H](CC(C)C)NC(=O)[C@H](Cc1ccccc1)NC(=O)[C@H](CC(N)=O)NC(=O)[C@H](C)NC(=O)[C@H](CC(C)C)NC(=O)[C@H](CCCNC(=N)N)NC(=O)[C@H](CCC(N)=O)NC(=O)[C@@H](NC(=O)[C@H](C)NC(=O)[C@@H]1CSSC[C@H](NC(=O)[C@@H](N)CCCCN)C(=O)N[C@@H](CC(N)=O)C(=O)N[C@@H]([C@@H](C)O)C(=O)N[C@@H](C)C(=O)N[C@@H]([C@@H](C)O)C(=O)N1)[C@@H](C)O)C(C)C)C(=O)N[C@@H](CC(C)C)C(=O)N1CCC[C@H]1C(=O)N1CCC[C@H]1C(=O)N[C@H](C(=O)N[C@@H](CC(N)=O)C(=O)N[C@H](C(=O)NCC(=O)N[C@@H](CO)C(=O)N[C@@H](CC(N)=O)C(=O)N[C@H](C(=O)N[C@@H](Cc1ccc(O)cc1)C(N)=O)[C@@H](C)O)C(C)C)[C@@H](C)O` [Pramlintide] as the compound, how does the bioavailability read?
**A.** 1.77%
